The results in this text go back to US11554120B2, “1H-pyrazolo[4,3-d]pyrimidine compounds as toll-like receptor 7 (TLR7) agonists and methods and uses therefor” (BRISTOL-MYERS SQUIBB COMPANY, priority 2018, dated 2023).

Amino acid sequences for entries named in this document (tags omitted). Residues count along the entry.
UniProt Q9NYK1, 27-1049 limits assumed: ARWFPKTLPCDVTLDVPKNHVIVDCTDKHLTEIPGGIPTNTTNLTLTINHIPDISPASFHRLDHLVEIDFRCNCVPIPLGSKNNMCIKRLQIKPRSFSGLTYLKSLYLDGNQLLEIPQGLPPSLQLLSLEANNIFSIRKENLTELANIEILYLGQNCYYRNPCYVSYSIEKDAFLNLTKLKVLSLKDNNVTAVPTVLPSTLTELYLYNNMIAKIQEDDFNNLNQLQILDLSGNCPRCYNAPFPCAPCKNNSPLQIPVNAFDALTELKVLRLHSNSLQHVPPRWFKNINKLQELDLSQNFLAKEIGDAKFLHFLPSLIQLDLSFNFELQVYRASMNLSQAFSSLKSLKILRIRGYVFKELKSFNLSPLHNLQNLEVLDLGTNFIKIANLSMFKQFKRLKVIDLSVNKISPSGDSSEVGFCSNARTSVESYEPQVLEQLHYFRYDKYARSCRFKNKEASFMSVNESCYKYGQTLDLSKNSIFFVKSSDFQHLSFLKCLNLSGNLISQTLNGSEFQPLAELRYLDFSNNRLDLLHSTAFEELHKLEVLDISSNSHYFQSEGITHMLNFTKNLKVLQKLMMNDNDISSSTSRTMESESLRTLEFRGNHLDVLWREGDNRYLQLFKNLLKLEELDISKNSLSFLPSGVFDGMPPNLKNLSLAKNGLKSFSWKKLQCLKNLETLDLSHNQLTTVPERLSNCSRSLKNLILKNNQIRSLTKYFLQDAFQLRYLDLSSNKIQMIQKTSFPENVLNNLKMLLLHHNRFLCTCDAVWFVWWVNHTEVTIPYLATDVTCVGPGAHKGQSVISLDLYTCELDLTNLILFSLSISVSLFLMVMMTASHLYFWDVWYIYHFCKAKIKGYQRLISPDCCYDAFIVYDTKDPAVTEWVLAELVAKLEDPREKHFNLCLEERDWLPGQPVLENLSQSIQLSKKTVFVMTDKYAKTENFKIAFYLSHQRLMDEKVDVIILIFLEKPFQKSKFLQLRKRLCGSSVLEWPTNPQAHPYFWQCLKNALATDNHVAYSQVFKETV

The target in the experiment is human TLR7 (Homo sapiens, UniProt Q9NYK1). In words: Human TLR7 agonist activity assay (HEK-Blue TLR7 SEAP reporter). Format: cell-based. Conditions: read-out: hTLR7 EC50, HEK-Blue TLR7 cells, 18 h treatment, in some instances average of plural assays.

Molecules are shown by their SMILES.

In general, EC50 refers to the concentration that produces a half-maximal response. Take `CCCCNc1nc(N)nc2cnn(Cc3ccc(Oc4ccc(CN5CCC(O)CC5)cc4)cc3OC)c12`: the EC50 was found to be 13.1 nM.
